In patent US8589175B2, “Optimization and individualization of medication selection and dosing” (Children's Hospital Medical Center, priority 2005, dated 2013):

What was measured:
CYP2C19 = assay: dosing recommendation per CYP2C19 metabolizer subgroup as percentage of usual population dose (Equations 4-6)
From the text: Assuming the goal is to maintain the same AUC for all three subpopulations of patients, the following subpopulation dosing relationships hold: DPM=DEM*(AUCEM/AUCPM) OR DPM=DEM*R if R=(AUCEM/AUCPM) (Equation 2) DIM=DEM*(AUCEM/AUCIM) OR DIM=DEM*S if S=(AUCEM/AUCIM) (Equation 3)
By substituting equations 2 and 3 into equation 1, and then rearranging the equation to solve for the percent dose adjustment needed for each subgroup relative to the population dose: DEM(%)=100/(fEM+fIM*S+fPM*R) (Equation 4) DPM(%)=R*DEM (Equation 5) DIM(%)=S*DEM (Equation 6) Equations 4, 5, and 6 show how the dosing for the more homogeneous subgroups is determined and how the dosing results are expressed as a fraction of the clinician's usual heterogeneous whole group dosages. Determining “Minimal Dose Adjustment Units”
Example: The approach in the previous section leads to individualized initial drug dose recommendations for each of the 3 subgroups (extensive, poor and intermediate metabolizers). Each subgroup represents a specific number of functional alleles for the specific DME (extensive metabolizers have 2 functional, intermediate metabolizers have 1 functional and poor metabolizers have 0 functional). The resultant dosing recommendations are expressed as percentages of the clinician's usual starting dose. It is possible to investigate the effect of increasing numbers of non-functional alleles using these new dosing recommendations. For example, if DRX % is the dosing recommendation for subgroup X expressed as a percentage of the clinician's usual starting dose then the following are true: Effect of […] 1 non-functional allele=(DREM %−DRIM %)/DREM % Effect of 2 non-functional allele=(DREM %−DRPM %)/DREM % Below is a spreadsheet (Table 3) that examines this for CYP2D6, CYP2C19 and CYP2C9. […] 2C9 has 2 MDA units per non-functional allele.

CYP2D6 = conditions: human

Row | Compound | 2 al/1 al (CYP2C19; human) | UM (%) dosing recommendation (CYP2C19; human) | 2 al/1 al (CYP2D6) | UM (%) dosing recommendation (CYP2C19; CYP2C19, head prints UM, percent of usual dose) | 2 al/1 al (CYP2C19; CYP2C19, ratio of the two effects) | EM (%) dosing recommendation (CYP2D6)
1 | CN(C)CCC=C1c2ccccc2COc2ccccc21 [doxepin] | 4.07 | 105% | 2.02 | – | – | –
2 | CNCCC(Oc1ccc(C(F)(F)F)cc1)c1ccccc1 (stereo not shown) [fluoxetine] | – | – | 2.23 | 107% | 1.76 | 107%
